Data on 1 compound can be found in ChEMBL document CHEMBL3580647, “Discovery of potent indenoisoquinoline topoisomerase I poisons lacking the 3-nitro toxicophore” (J Med Chem, 2015).

This experiment is described as follows: Growth inhibition of human NCI60 cells assessed as cell growth at 10 uM. Type of experiment: functional. To be noted: read-out: Activity. Put shortly:
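NCI-60 single-dose screen at 10 μM across ~60 human cancer cell lines. Reported as growth percent relative to vehicle-treated control, averaged over all lines tested as a mean growth percent.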

SMILES strings stand for the structures.

`CN(C)CCCn1c2c(c3ccncc3c1=O)C(=O)c1ccccc1-2`: the growth at 10 µM was -9.25%.
